We go through 1 compound from publication PMC9326885 (Journal of Food and Drug Analysis, 2017).

The chains behind the UniProt entries cited, without tags or fusion partners. Where a name states a change or a piece, a line headed by the entry shows the natural chain unless it says otherwise.
UniProt Q92887: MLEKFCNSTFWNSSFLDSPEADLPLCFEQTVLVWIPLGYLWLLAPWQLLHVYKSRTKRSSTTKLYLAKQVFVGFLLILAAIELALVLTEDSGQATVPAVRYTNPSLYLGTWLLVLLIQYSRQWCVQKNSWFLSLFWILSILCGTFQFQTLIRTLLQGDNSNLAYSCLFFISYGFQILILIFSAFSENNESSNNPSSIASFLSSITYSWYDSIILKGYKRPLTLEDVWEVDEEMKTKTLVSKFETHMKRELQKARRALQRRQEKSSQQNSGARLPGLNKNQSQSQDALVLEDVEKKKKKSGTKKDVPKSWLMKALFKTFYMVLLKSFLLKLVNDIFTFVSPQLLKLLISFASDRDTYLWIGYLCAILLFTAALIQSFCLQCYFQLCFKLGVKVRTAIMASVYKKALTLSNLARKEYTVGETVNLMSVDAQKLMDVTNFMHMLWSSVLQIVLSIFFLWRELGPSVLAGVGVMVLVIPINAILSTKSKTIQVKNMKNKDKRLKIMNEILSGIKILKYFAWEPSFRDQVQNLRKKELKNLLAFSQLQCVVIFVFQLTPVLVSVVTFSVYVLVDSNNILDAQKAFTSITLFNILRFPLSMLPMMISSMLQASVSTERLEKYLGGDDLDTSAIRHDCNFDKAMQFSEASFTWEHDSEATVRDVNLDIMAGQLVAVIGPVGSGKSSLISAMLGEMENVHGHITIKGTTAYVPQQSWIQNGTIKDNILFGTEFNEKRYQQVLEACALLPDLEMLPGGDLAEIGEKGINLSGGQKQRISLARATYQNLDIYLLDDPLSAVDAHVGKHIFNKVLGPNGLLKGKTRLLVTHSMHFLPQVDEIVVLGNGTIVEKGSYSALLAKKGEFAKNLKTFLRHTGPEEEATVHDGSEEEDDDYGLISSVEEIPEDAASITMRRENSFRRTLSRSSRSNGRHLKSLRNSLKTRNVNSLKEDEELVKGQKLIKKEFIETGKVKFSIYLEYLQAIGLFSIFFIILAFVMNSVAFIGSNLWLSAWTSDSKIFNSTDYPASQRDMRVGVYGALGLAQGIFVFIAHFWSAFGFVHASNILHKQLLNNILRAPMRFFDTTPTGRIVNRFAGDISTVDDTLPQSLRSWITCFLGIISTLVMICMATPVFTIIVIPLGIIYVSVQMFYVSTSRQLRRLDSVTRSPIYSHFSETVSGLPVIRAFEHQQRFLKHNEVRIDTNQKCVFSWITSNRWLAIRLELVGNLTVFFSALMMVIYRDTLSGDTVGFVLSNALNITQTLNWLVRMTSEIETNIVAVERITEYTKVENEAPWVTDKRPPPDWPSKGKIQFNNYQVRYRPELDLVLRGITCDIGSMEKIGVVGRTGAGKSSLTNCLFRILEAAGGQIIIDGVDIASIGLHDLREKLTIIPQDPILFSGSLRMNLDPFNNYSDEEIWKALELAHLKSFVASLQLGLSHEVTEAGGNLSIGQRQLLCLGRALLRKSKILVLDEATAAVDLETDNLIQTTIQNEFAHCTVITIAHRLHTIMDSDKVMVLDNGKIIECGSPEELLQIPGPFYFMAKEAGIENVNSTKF

The assay addresses MRP 2 (Homo sapiens, UniProt Q92887). The experiment in a line: Effect on MRP 2-mediated efflux transport. In kind it is cell-based. Conditions: MDCKII-MRP 2 cells, 100 μM, positive control of MRP 2 inhibitor.

Take `CN(C)C(=O)CCSC(SCCC(=O)O)c1cccc(/C=C/c2ccc3ccc(Cl)cc3n2)c1` (stereo not shown) [MK 571]: the “Increase of intracellular accumulation of GSMF” value turned out to be 63%.
